Data taken from patent publication US20200155567A1, “TREATMENT OF CANCERS USING A COMBINATION COMPRISING PARP INHIBITORS, TEMOZOLOMIDE AND/OR RADIATION THERAPY” (BEIGENE, LTD., priority 2017, published 2020).

Test system: H209-T small cell lung cancer xenografts
Experiment: H209-T intracranial tumor model
Format: in vivo, nude mice
Settings: Compound B 2.73 mg/kg BID; TMZ 50 mg/kg; vehicle 22.5 days
Source text: H209-T is a TMZ-resistant cell line generated by treating H209-xenografted tumors with multiple cycles of TMZ in vivo.

Compound: Cn1nnc2c(C(N)=O)ncn2c1=O [TMZ, temozolomide]
- median survival: 26.5 days

Compound: C[C@]12CCCN1CC1=NNC(=O)c3cc(F)cc4[nH]c2c1c34 [Compound B, (R)-2-fluoro-10a-methyl-7,8,9,10,10a,11-hexahydro-5,6,7a,11-tetraazacyclohepta[def]cyclopenta[a]fluoren-4(5H)-one sesqui-hydrate]
- median survival: 24 days
